# Apparent affinities of Ab-14 variants for a coronavirus HR2 peptide

All variants were tested on one target, the spike HR2 peptide PDVDLGDISGINAS (SARS-CoV-2).

Parent scFv Ab-14: VH joined to VL by a (GGGGS)3 linker. Changes lie in the heavy chain CDRs alone.
VH: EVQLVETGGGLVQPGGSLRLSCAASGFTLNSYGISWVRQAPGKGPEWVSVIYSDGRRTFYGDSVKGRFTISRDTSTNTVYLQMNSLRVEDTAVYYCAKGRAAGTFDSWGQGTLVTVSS
VL: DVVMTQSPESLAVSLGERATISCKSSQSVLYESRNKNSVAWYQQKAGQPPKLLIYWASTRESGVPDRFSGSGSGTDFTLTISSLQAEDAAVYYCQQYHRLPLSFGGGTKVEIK

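Phage display of a naive human antibody library on the peptide gave the parent. The variants were designed computationally from a first round of random CDR variants and then made and measured. Several design methods are mixed in this list. The scFvs were displayed on barcoded MATa yeast, the peptide on MATalpha yeast. The frequency of each diploid, read from paired DNA barcodes, reflects how well the two displayed proteins bind. A regression on co-assayed BCL2-family reference pairs converts the normalised counts of each replicate to an apparent Kd. The assay was run in six technical replicates.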

Each variant is given by its three heavy chain CDRs, as the data file delimits them; those of the parent are GFTLNSYGIS, VIYSDGRRTFYGDSVK, GRAAGTFDS.
Variants here have at most six changes.
Values are apparent Kd, the geometric mean of the replicates that gave a signal; lower means stronger binding.
"nd" marks a missing value. The strain was present, yet no cells mated with the target were sequenced in any replicate, which points to weak or no binding.
The authors averaged sequences with at least three values out of six and counted those with two or fewer as poor binders.
The parent sequence was in this pool as ten entries: three were never detected, three once, and four in most replicates, with averages from 2.2 nM to 240 nM.
A sequence that the file lists under several names has all its replicates pooled.
Nonspecific signal, from three strains lacking the peptide, appeared in 1% of pairings of all heavy chain designs, centred on 120 nM (5% of these signals below 7.0 nM); values are not corrected for it.
Values of this round are not directly comparable with the first-round values of the same sequences.

The variant GKSLNEYGIS | VIYSDGRRTFYGDDVK | GRTAGTFDS showed 1.4 µM (2 of 6 replicates). The variant GFTLNEYGIS | VAYSDGNRTFYGDSVK | GRAAVSFDQ gave nd (0 of 6 replicates). The variant GFNLNSYGIS | VIYSDGRRTFYVDDVK | GRLAGTFDT showed 14 nM (4 of 6 replicates). For GFTLNEYGIS | VIYSDGRWTFYTDSVK | GRFAGTFDS, the assay gave nd (0 of 6 replicates). The variant GFELNSYGIS | VIYSDGRRTFYGDSVK | GKTAGTFDK gave 19 nM (6 of 6 replicates). The variant GFWLNDYGIS | VIYSDGRRTFYHDSVK | GRTAGTFDA gave 10 nM (3 of 6 replicates). The variant GFGLNEYGIS | VIYSDGRRTFYIDSVK | GQAAGTFDS showed 2.0 nM (6 of 6 replicates). The variant KFTLNEYGIS | VIYSDGRRTFYGDSVK | GRAAVTFDT gave nd (0 of 6 replicates).

For GFSLNSYGIS | VIYSDGRRTFYADSVK | GHAAGTFDY, the assay gave 5.7 nM (6 of 6 replicates). The variant GFRLNEYGIS | VIYSDGRRTFYGDSVK | GQAAGTFDQ showed 10 nM (6 of 6 replicates). With GFDLNSYGIS | VIYSDGRRTFYGDSVK | GQAAGIFDS the result was 400 nM (1 of 6 replicates). For GFELNSYGIS | VIYSDGRRTFYVDDVK | GRTAGTFDS, the assay gave 2.1 nM (6 of 6 replicates). The variant GFDLNSYGIS | VIYSDGRRTFYIDDVK | GKAAGTFDS showed 8.2 nM (4 of 6 replicates). For GFTLNDYGIS | VIYSDMRRTFYGDSVK | GRAAGTLIS, the assay gave nd (0 of 6 replicates). For KFKLNSYGIS | VIYSDGKRTFYGDSVK | GRTAGTFDS, the assay gave 38 nM (1 of 6 replicates). The variant GRTLNSYGIS | VIYSDGRRTFYHDSVK | GRATGTFDT showed nd (0 of 6 replicates).

For GFSLNSYGIS | VIYSDGRRTFYADSVK | GSAAGTFDK, the assay gave 3.2 nM (6 of 6 replicates). With GFTLDSYGIS | VIYSDGRRTFYGDSVK | GRAAGTFSS the result was nd (0 of 6 replicates). For GFSLNDYGIS | VIYSDGRRTFYGDSVK | GKAAGTFDS, the assay gave 320 pM (6 of 6 replicates). For GFELNSYGIS | VIYADGRRTFYHDSVK | GKAAGTFDS, the assay gave nd (0 of 6 replicates). For GFSLNSYGIS | VIYSDGRRTFYQDSVK | GRNAGTFDS, the assay gave 4.1 nM (12 of 12 replicates). The variant GFTLNSYGIS | VIYSDGRRTFYQDSVK | GRAAGTWES showed nd (0 of 6 replicates). The variant GFTINSYGIS | VIYSDGRRTFYGDSVK | GKNAGTFDS gave 93 nM (4 of 6 replicates). With KFDLNSYGIS | VIYSDGKRTFYIDSVK | GRNAGTFDS the result was 58 nM (6 of 6 replicates).

With GFDLNEYGIS | VIYADGRRTFYADSVK | GEAAGTFDQ the result was 230 pM (6 of 6 replicates). For GFSLNSYGIS | VIYSDGRRTFYADSVK | GRTAGTFDR, the assay gave 4.9 nM (6 of 6 replicates). The variant GFTLNSYGIS | VIYSDGRRTFYEDSVK | GRVAGTFDS showed 14 nM (5 of 6 replicates). With GFTLNSYGIS | VIYSDGRRTFYGDSVK | GSTAGTFDV the result was 4.6 nM (6 of 6 replicates). The variant GFTLNDYGIS | VINSDWRRTFYGDSVK | GRAALTFIS gave nd (0 of 6 replicates). The variant GFTLNSYGID | VIYSDGRRTFYEDSVK | GRAADTKDS gave nd (0 of 6 replicates). The variant GFQLNSYGIS | VIYSDGRRTFYVDQVK | GRTAGTFDS showed nd (0 of 6 replicates). For GFTLNSYGIS | VIYADGRRTFYGDSVK | GEAAGTFDL, the assay gave 3.6 nM (6 of 6 replicates).

The variant GFTLNSYGIS | YIYSDGRRTFYGDSVK | GRAAGTDDS gave nd (0 of 6 replicates). With GFNLNSYGIS | VIYSDGRRVFYGDSVK | GRAAGTFDS the result was nd (0 of 6 replicates). The variant GFDLNSYGIS | VIYSDGRRTFYIDSVK | GRAAGTFDT gave 990 pM (6 of 6 replicates). For GFTLNEYGIS | VIYSDGRRTQYQDSVK | GRAAGTFDS, the assay gave 9.7 nM (5 of 6 replicates). The variant GFTLNSYGIS | VIYSDGRRTFYGDSVK | GRQAGTPDS gave nd (0 of 6 replicates). The variant GFSLNSYGIS | VIYADGRRTFYGDNVK | GRAAGTFKS showed 410 nM (2 of 6 replicates). With GFTLNQYGIS | VIYSDGVRTFYSDSVK | GRAALFFDS the result was nd (0 of 6 replicates). For GRTLNSYGIS | VIYSDGRRTEYGDSVK | GRAAGCFDS, the assay gave nd (0 of 6 replicates).

The variant GFTLNEYGIS | VIYSDGRRTFYHDSVK | GRAAGFFDS showed 95 nM (1 of 6 replicates). For GFTLNSYGIS | VIYSDGRRTFYSDSVK | GSDAGTFDS, the assay gave 210 nM (1 of 6 replicates). With GFTLDSYGIS | VIYSDGRRTFYGDSVK | GHAAGTFDR the result was 120 nM (6 of 6 replicates). With GFTLNDYGIS | VIYSDGRRTFYGDSVK | GRWAGTFIS the result was 11 nM (6 of 6 replicates).

A selection of 7 entries from above:

CDR-H1,CDR-H2,CDR-H3,Kd,replicates with signal
GFTLNSYGIS,YIYSDGRRTFYGDSVK,GRAAGTDDS,nd,0/6
GFTLNEYGIS,VIYSDGRWTFYTDSVK,GRFAGTFDS,nd,0/6
GFDLNSYGIS,VIYSDGRRTFYIDSVK,GRAAGTFDT,990 pM,6/6
GFTLDSYGIS,VIYSDGRRTFYGDSVK,GHAAGTFDR,120 nM,6/6
GKSLNEYGIS,VIYSDGRRTFYGDDVK,GRTAGTFDS,1.4 µM,2/6
GFSLNSYGIS,VIYSDGRRTFYADSVK,GHAAGTFDY,5.7 nM,6/6
GFTLNEYGIS,VIYSDGRRTQYQDSVK,GRAAGTFDS,9.7 nM,5/6

Data: MIT Lincoln Laboratory AlphaSeq set, Li et al. 2023, doi:10.1038/s41467-023-39022-2, as distributed in FLAb.